Curated experimental data: water solubility values

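OPERA's authors assembled the values from existing databases and did not measure them anew. One number stands for a compound and property, with no spread given. Method, purity and exact conditions of the single measurements are not given. A value may pool stereoisomers or salt forms, and the file does not say which form was measured. Some upstream entries may be estimates or bounds without being marked so.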

Solubility in water is on a log10 molar scale (set defined at 25 °C).

* CC(C)C(C(=O)O)C(C)C(=O)O (configuration not stated) [2-Methyl-3-(propan-2-yl)butanedioic acid]: water solubility -1.435 (log10 mol/L)
* CCCCC(CC)CN1C(=O)C2C3C=CC(C3)C2C1=O (configuration not stated) [Octylbicycloheptenedicarboximide]: water solubility -4.264 (log10 mol/L)
* COc1nc(C)nc(=NC(O)=NS(=O)(=O)c2ccccc2C(=O)O)[nH]1 [Metsulfuron]: water solubility -3.33 (log10 mol/L)
* C=C(C)C(=O)OCCOC(=O)C(=C)C [Ethylene glycol dimethacrylate]: water solubility -2.397 (log10 mol/L)
* COc1cc([N+](=O)[O-])ccc1N=Nc1ccc(N(CCO)CCO)cc1C: water solubility -5.348 (log10 mol/L)
* Clc1ccc(Oc2ccccc2)c(Cl)c1Cl [2,3,4-Trichlorodiphenyl ether]: water solubility -5.32 (log10 mol/L)
* Nc1c(/N=N/c2ccc(-c3ccc(/N=N/c4cc(S(=O)(=O)[O-])c5ccccc5c4N)cc3)cc2)cc(S(=O)(=O)[O-])c2ccccc12.[Na+].[Na+] [C.I. Direct Red 28]: water solubility -0.779 (log10 mol/L)
* OC1CO[C@@H](O)C(O)C1O (stereo in doubt) [L-Arabinopyranose]: water solubility 0.39 (log10 mol/L)
* CCOC(=O)[C@H](CCc1ccccc1)N[C@@H](C)C(=O)N1CCC[C@H]1C(=O)O.O=C(O)/C=C\C(=O)O [Enalapril maleate]: water solubility -4.29 (log10 mol/L)
* Cc1ccccc1N=Nc1ccc(N=Nc2c(O)ccc3ccccc23)c(C)c1 [C.I. Solvent Red 24]: water solubility -7.219 (log10 mol/L)
* CCC(C)NC(N)=S (configuration not stated) [sec-Butyl-thiourea]: water solubility -1.139 (log10 mol/L)
* COc1cc(NC(=O)C(N=Nc2cc(OC)c(S(=O)(=O)Nc3ccccc3)cc2OC)C(C)=O)c(OC)cc1Cl (configuration not stated) [C.I. Pigment Yellow 97]: water solubility -7.965 (log10 mol/L)
* CNC(=O)Nc1ccc(C)c(Cl)c1 [N-(3-chloro-4-methylphenyl)-N'-methylurea]: water solubility -2.879 (log10 mol/L)
* Clc1ccccc1Oc1ccc(Cl)c(Cl)c1Cl: water solubility -6.74 (log10 mol/L)
* CN(C)C=C1OC(=O)C(C#N)=C1c1ccccc1: water solubility -1.12 (log10 mol/L)
* Nc1[nH]c(=O)nc2nc[nH]c12 [Isoguanine]: water solubility -3.376 (log10 mol/L)
* COc1cc(/C=N\NC(N)=S)ccc1O[C@@H]1O[C@H](CO)[C@@H](O)[C@H](O)[C@H]1O: water solubility -2.865 (log10 mol/L)
* CCCCCCCCCCCCCCCCCCNC(=O)Nc1ccc(Cc2ccc(NC(=O)NCCCCCCCCCCCCCCCCCC)cc2)cc1: water solubility -5.943 (log10 mol/L)
* CC(=O)n1ncc2c(=O)[nH]cnc21 [1-Acetyl-1,5-dihydro-4H-pyrazolo[3,4-d]pyrimidin-4-one]: water solubility -2.378 (log10 mol/L)
* CCCCCCCCCCCCCCC(=O)O [Pentadecanoic acid]: water solubility -4.309 (log10 mol/L)
* O=C1c2ccc(O)c(O)c2C(=O)c2c(O)ccc(O)c21 [Quinalizarin]: water solubility -5.02 (log10 mol/L)
* CCCCNC(=O)[C@@H](O)[C@@H](O)[C@H](O)[C@@H](O)C(=O)NCCCC [D-Glucaric acid bis-butylamide]: water solubility -2.108 (log10 mol/L)
* C1=NCc2ccccc2N1 [3,4-Dihydroquinazoline]: water solubility -0.723 (log10 mol/L)
* CCn1cc(C(=O)O)c(=O)c2cc(F)c(N3CCNC(C)C3)c(F)c21 (configuration not stated) [Lomefloxacin]: water solubility -2.533 (log10 mol/L)
* O=C[C@H]1C[C@@H]2OC(C(Cl)(Cl)Cl)O[C@@H]2[C@H]1O (some centres not stated): water solubility -2.042 (log10 mol/L)
* CCCOC(=O)CCC(=O)N(CC)CC [Butanoic acid, 4-(diethylamino)-4-oxo-, propyl ester (9CI)]: water solubility -0.617 (log10 mol/L)
* O=S1(=O)N=C(Nc2ccccc2)c2ccccc21 [1,1-Dioxo-N-phenyl-1,2-benzothiazol-3-amine]: water solubility -3.713 (log10 mol/L)
* CC(CCCCCCCCC(=O)O)CC(=O)O (configuration not stated) [3-Methyldodecanedioic acid]: water solubility -3.388 (log10 mol/L)
* CC(C)(NCCNC(C)(C)C(=O)O)C(=O)O [2,2'-(Ethane-1,2-diyldiazanediyl)bis(2-methylpropanoic acid)]: water solubility -2.065 (log10 mol/L)
* CCCCCCCCCCCC=O [Dodecanal]: water solubility -5.061 (log10 mol/L)
* O=C(O)CCCCCCCC(C(=O)O)(c1ccccc1)c1ccccc1 [2,2-Diphenyl-decanedioic acid]: water solubility -3.939 (log10 mol/L)
* CCCCOC(CC)OC(C)COC(O)CC (configuration not stated) [Tripropylene glycol butyl ether]: water solubility -0.804 (log10 mol/L)
* O=C(Nc1ccc(NC(=O)c2cc3ccccc3c(N=Nc3ccc(Cl)cc3[N+](=O)[O-])c2O)c(Cl)c1)c1cc2ccccc2c(N=Nc2ccc(Cl)cc2[N+](=O)[O-])c1O: water solubility -7.628 (log10 mol/L)
* O=C(O)c1cccc(C(F)(F)F)c1 [3-(Trifluoromethyl)benzoic acid]: water solubility -3.11 (log10 mol/L)
* CC1CC=C(C(=O)O)C(C)O1 (configuration not stated) [2,6-Dimethyl-5,6-dihydro-2H-pyran-3-carboxylic acid]: water solubility -0.796 (log10 mol/L)
* CCCCCCCCCCCCCCCCCCOC(=O)c1cccnc1 [Octadecyl nicotinate]: water solubility -3.429 (log10 mol/L)
* O=C(O)CC=CCC(=O)O [3-Hexenedioic acid]: water solubility -1.388 (log10 mol/L)
* CC(=O)O[C@H]1[C@@H]2OC(C)(C)O[C@@H]2O[C@H]1C1COC(C)(C)O1 (some centres not stated): water solubility -1.523 (log10 mol/L)
* O=C1CC2(CCCC2)CC(=O)N1CCCCN1CCN(c2ncccn2)CC1 [Buspirone]: water solubility -2.817 (log10 mol/L)
* N[C@@H](CCC(=O)N[C@@H](CS)C(=O)NCC(=O)O)C(=O)O [Glutathione]: water solubility -0.021 (log10 mol/L)
* CC(=O)Oc1c(C)cc(OCC(O)CNC(C)C)c(C)c1C (configuration not stated) [Metipranolol]: water solubility -3.252 (log10 mol/L)
* CCCCCCCCC(CCCCCC)C(=O)OC[C@H](OC(=O)C(CCCCCC)CCCCCCCC)[C@H]1OC(=O)C(OC(=O)C(CCCCCC)CCCCCCCC)=C1OC(=O)C(CCCCCC)CCCCCCCC (some centres not stated) [Tetrahexyldecyl ascorbate]: water solubility -7.099 (log10 mol/L)
* c1ccc(COCc2ccccc2)cc1 [Dibenzyl ether]: water solubility -3.673 (log10 mol/L)
* CCCCNC(=O)Nc1c(C)n(C)n(-c2ccccc2)c1=O: water solubility -1.629 (log10 mol/L)
* NS(=O)(=O)c1ccc([O-])c(/N=N/c2c(S(=O)(=O)[O-])cc3cc(Nc4ccc5c([O-])c(/N=N/c6cc(S(N)(=O)=O)ccc6[O-])c(S(=O)(=O)[O-])cc5c4)ccc3c2[O-])c1.[Cu+2].[Cu+2].[Na+].[Na+]: water solubility -2.71 (log10 mol/L)
* O=[N+]([O-])c1ccc(Nc2ccccc2)c([N+](=O)[O-])c1 [Benzenamine, 2,4-dinitro-N-phenyl-]: water solubility -3.834 (log10 mol/L)
* O=C1c2ccccc2C(=O)C1c1nc2ccccc2c(Br)c1O [C.I. Disperse Yellow 64]: water solubility -4.867 (log10 mol/L)
* Cc1nc(C)c2c(n1)N(Cc1ccc(-c3ccccc3-c3nn[nH]n3)cc1)C(=O)CC2 [Tasosartan]: water solubility -4.102 (log10 mol/L)
* COc1ccccc1NC(=O)c1cc2ccccc2c(N=Nc2ccc(C(N)=O)cc2)c1O [C.I. Pigment Red 266]: water solubility -8.167 (log10 mol/L)

A selection of 5 entries from above:

- O=S1(=O)N=C(Nc2ccccc2)c2ccccc21 [1,1-Dioxo-N-phenyl-1,2-benzothiazol-3-amine]: water solubility -3.713 (log10 mol/L)
- CCn1cc(C(=O)O)c(=O)c2cc(F)c(N3CCNC(C)C3)c(F)c21 (configuration not stated) [Lomefloxacin]: water solubility -2.533 (log10 mol/L)
- O=[N+]([O-])c1ccc(Nc2ccccc2)c([N+](=O)[O-])c1 [Benzenamine, 2,4-dinitro-N-phenyl-]: water solubility -3.834 (log10 mol/L)
- CCCCNC(=O)[C@@H](O)[C@@H](O)[C@H](O)[C@@H](O)C(=O)NCCCC [D-Glucaric acid bis-butylamide]: water solubility -2.108 (log10 mol/L)
- CCOC(=O)[C@H](CCc1ccccc1)N[C@@H](C)C(=O)N1CCC[C@H]1C(=O)O.O=C(O)/C=C\C(=O)O [Enalapril maleate]: water solubility -4.29 (log10 mol/L)

Source: data files of OPERA 2.9 (Mansouri et al.), github.com/kmansouri/OPERA.